The text below walks through data of patent US20070196886A1 (priority 2004, published 2007).

The chains behind the UniProt entries cited, without tags or fusion partners.
UniProt P0A8T7, whole entry: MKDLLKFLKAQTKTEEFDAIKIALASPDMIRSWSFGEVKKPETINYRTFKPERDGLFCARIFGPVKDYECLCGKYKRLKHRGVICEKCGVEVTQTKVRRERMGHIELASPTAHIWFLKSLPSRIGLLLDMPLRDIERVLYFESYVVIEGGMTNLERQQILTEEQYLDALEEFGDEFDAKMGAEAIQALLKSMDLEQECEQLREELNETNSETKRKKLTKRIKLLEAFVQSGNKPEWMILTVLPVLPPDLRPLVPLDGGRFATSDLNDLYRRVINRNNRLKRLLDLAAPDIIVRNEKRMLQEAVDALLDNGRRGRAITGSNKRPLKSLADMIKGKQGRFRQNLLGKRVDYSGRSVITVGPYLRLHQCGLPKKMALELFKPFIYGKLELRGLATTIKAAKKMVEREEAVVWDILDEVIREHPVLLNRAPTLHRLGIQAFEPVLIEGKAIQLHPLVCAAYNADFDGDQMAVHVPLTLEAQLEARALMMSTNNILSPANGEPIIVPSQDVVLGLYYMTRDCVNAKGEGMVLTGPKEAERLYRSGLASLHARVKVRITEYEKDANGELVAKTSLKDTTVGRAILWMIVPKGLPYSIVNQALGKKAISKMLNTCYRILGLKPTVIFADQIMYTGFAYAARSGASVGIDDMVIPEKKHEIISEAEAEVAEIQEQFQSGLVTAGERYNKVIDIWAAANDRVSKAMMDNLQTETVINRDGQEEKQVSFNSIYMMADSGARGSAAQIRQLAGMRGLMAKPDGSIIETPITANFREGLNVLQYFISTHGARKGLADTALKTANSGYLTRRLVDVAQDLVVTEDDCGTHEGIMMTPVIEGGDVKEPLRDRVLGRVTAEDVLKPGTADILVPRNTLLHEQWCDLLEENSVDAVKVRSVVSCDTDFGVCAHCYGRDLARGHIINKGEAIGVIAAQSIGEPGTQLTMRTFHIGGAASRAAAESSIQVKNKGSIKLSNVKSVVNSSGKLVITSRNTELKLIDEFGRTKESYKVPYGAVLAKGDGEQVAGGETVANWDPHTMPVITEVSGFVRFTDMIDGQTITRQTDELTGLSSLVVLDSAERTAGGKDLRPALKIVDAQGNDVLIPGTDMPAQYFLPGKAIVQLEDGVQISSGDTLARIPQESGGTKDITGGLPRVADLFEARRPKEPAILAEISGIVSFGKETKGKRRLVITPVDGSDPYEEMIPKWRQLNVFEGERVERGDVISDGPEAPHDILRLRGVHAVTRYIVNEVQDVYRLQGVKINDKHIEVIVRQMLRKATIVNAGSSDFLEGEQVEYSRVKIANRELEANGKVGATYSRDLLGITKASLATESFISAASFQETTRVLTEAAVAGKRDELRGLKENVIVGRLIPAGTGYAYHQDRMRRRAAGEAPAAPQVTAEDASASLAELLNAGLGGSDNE
UniProt P0A8V2, whole entry: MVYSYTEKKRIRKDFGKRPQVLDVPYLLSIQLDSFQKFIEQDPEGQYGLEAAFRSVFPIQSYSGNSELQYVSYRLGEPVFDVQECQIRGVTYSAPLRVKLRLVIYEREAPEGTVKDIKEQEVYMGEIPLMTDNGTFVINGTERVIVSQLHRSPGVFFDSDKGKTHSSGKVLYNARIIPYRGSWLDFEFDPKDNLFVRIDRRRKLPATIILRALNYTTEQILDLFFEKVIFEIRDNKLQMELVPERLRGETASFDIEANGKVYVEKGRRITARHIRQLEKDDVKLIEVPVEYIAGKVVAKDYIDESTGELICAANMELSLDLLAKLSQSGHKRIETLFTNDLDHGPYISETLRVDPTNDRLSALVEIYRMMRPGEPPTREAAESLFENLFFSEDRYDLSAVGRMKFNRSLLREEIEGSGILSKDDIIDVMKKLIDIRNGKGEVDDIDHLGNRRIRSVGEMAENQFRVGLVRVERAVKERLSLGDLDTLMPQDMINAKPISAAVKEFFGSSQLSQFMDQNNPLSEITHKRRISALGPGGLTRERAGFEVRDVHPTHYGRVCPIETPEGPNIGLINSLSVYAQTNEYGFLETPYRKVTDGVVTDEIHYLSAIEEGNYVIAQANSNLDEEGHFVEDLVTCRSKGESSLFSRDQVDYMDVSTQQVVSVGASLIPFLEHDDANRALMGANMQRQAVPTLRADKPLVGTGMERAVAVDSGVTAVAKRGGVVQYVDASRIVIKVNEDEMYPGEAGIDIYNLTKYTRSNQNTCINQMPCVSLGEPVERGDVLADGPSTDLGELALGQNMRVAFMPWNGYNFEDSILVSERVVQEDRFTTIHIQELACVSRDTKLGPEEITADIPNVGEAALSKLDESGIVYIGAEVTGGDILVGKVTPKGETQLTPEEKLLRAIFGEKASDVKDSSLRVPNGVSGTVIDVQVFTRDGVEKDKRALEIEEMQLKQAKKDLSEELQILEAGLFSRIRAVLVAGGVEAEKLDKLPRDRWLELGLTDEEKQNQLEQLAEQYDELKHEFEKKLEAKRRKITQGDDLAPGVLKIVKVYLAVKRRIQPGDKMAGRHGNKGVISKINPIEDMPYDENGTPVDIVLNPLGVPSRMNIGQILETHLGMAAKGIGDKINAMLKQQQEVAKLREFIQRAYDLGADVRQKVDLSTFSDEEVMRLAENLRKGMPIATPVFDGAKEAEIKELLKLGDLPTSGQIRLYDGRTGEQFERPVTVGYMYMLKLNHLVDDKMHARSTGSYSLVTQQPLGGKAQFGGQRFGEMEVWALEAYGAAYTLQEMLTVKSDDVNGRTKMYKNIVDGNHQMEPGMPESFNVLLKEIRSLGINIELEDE

The target of assay [1] is T1, RNAP holoenzyme (Escherichia coli, UniProt P0A8T7+P0A8V2). Type of assay: biochemical. Conditions: partial-competitive model; FIG. 3F. As for the experimental part: Following 15 min at 37° C., 0.5 μl 1 mg/ml heparin was added, and, following a further 2 min at 37° C., 1 μl of 0.25-5 mM (γ-AmNS)UTP (Molecular Probes) was added, and reaction mixtures were transferred to sub-micro fluorometer cuvettes (Starna Cells). Following 2 min at 37° C., RNA synthesis was initiated by addition of 2.5 μl 10 mM ApA, and fluorescence emission intensity was monitored 5 min at 37° C. [excitation wavelength=360 nm and emission wavelength=500 nm; excitation and emission slit widths=4 nm; QuantaMaster QM1 spectrofluorometer (PTI)]. The quantity of UMP incorporated into RNA was determined from the quantity of (γ-AmNS)UTP consumed, which, in turn, was calculated as follows (Schlageck et al., (1979) J. Biol. Chem. 254, 12074-12077): (γ-AmNS)UTPconsumed=[(γ-AmNS)UTP0](Ft−F0)/(12.4×F0) (1) where (γ-AmNS)UTP0 is the quantity of (γ-AmNS) UTP at time 0, F0 is the fluorescence emission intensity at time 0, and Ft is the fluorescence emission intensity at time t. Data were fit to full-competitive, partial-competitive, full-noncompetitive, partial-noncompetitive, full-uncompetitive, partial-uncompetitive, full-mixed, and partial-mixed models of inhibition as in the preceding section.

Another assay has as its target T2, DAC-σ^70 RNAP holoenzyme (Escherichia coli, UniProt P0A8T7+P0A8V2).
T2 construct: made in house; host or cells: E. coli (core as in Niu et al. 1996; σ^70 derivative as in Mukhopadhyay et al. 2001)
It is filed as binding. The following applies: read-out: equilibrium dissociation constant, Kd.

Assay [2] addresses T1, RNAP holoenzyme. It is filed as biochemical. The following applies: partial-competitive model; 3-mer and 4-mer abortive products; FIG. 3E. How it is done: Following 15 min at 37° C., 0.5 μl 1 mg/ml heparin was added, and, following a further 2 min at 37° C., RNA synthesis was initiated by addition of 2 μl 5 mM ApA and 125 μM (or 250 μM, 500 μM, and 1 mM) each of [α-^32P]UTP (0.6 Bq/fmol), ATP, CTP, GTP. Following 5 min at 37° C., reactions were terminated by addition of 10 μl 80% formamide, 10 mM EDTA, 0.04% bromophenol blue, and 0.04% xylene cyanol. Products were heated 10 min at 90° C., resolved by urea-PAGE (Sambrook and Russel, (2001)), and quantified using a storage-phosphor scanner (Storm 860; Molecular Dynamics). Identities of tri- and tetranucleotide abortive products were defined as in Borowiec and Gralla, (1985) J. Mol. Biol. 184, 587-598). Data were fit to full-competitive, partial-competitive, full-noncompetitive, partial-noncompetitive, full-uncompetitive, partial-uncompetitive, full-mixed, and partial-mixed models of inhibition using the Fit-To-Model feature of the SigmaPlot Enzyme Kinetics Module (SPSS).

Read-outs that look alike come from different tables or passages of the source.

One may read the Ki as the dissociation constant of the complex between target and ligand, obtained from inhibition or displacement. Read a high Ki as a looser hold on the target. In general, Kd refers to the equilibrium constant for the complex coming apart. Turning to Microcin J25 [MccJ25], the Ki on RNAP holoenzyme [1] is 1200 ± 300 nM; at RNAP holoenzyme [2] it was 1400 ± 200 nM. The dissociation constant Kd on DAC-σ^70 RNAP holoenzyme turned out to be 500 nM.
